PubChem BioAssay (NCI)
Values joined by “and” are separate entries in the source; they are usually repeats but may differ in a detail not shown here. Equal values may be shown once. This is a selection; strong and weak results do not stand in their true shares.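 Step 1: grow cells in 96-well plates. Step 2: add test compound at a single concentration. Step 3: incubate 48 h. Step 4: record percent growth.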 Active and inactive are the calls of the source. The calls were made as follows: active = growth percent below 10; inactive = the rest.

Tests used:
Test in all cases: NCI-60 one-dose screen, 48 h (100 = growth as untreated, 0 = no growth, -100 = all killed)
Conditions in all cases: 10 µM unless noted
NCI-H23 lung = tested on: NCI-H23 lung
NCI-H226 lung = tested on: NCI-H226 lung
NCI-H322M lung = tested on: NCI-H322M lung
HOP-62 NSCLC = tested on: HOP-62 NSCLC
NCI-H460 lung = tested on: NCI-H460 lung
HOP-92 NSCLC = tested on: HOP-92 NSCLC
NCI-H522 lung = tested on: NCI-H522 lung
A549/ATCC NSCLC = tested on: A549/ATCC NSCLC
786-0 renal = tested on: 786-0 renal
COLO 205 colon = tested on: COLO 205 colon
DU-145 prostate = tested on: DU-145 prostate
K-562 leukemia = tested on: K-562 leukemia
MALME-3M melanoma = tested on: MALME-3M melanoma
MDA-MB-231 breast = tested on: MDA-MB-231 breast
RXF 393 renal = tested on: RXF 393 renal
SF-268 CNS = tested on: SF-268 CNS
SF-295 CNS = tested on: SF-295 CNS
SF-539 CNS = tested on: SF-539 CNS
UACC-257 melanoma = tested on: UACC-257 melanoma
M14 melanoma = tested on: M14 melanoma

Measured: growth

CN(C)P1(Cl)=NP(Cl)(N(C)C)=NP(Cl)(N(C)C)=N1 (stereo not given)
inactive: NCI-H23 lung 102% | NCI-H226 lung 96.2% | NCI-H322M lung 86.2% | HOP-62 NSCLC 92.2% | NCI-H460 lung 106% | HOP-92 NSCLC 103% | NCI-H522 lung 74.2% | A549/ATCC NSCLC 83.1% | 786-0 renal 90.2% | COLO 205 colon 96.2% | DU-145 prostate 110% | K-562 leukemia 88.6% | MALME-3M melanoma 106% | MDA-MB-231 breast 113% | RXF 393 renal 96.5% | SF-268 CNS 104% | SF-295 CNS 97.3% | SF-539 CNS 96.9% | UACC-257 melanoma 82% | M14 melanoma 99.7%

Nc1ccc([As](=O)(O)c2ccc(N)cc2)cc1
inactive: NCI-H23 lung 96.1% | NCI-H226 lung 102% | NCI-H322M lung 105% | HOP-62 NSCLC 96.4% | NCI-H460 lung 108% | HOP-92 NSCLC 82.9% | NCI-H522 lung 91.2% | A549/ATCC NSCLC 101% | 786-0 renal 105% | COLO 205 colon 97.7% | DU-145 prostate 111% | K-562 leukemia 123% | MALME-3M melanoma 109% | MDA-MB-231 breast 107% | RXF 393 renal 83.2% | SF-268 CNS 98.2% | SF-295 CNS 105% | SF-539 CNS 98.8% | UACC-257 melanoma 78.7% | M14 melanoma 101%

O=C1OCCN1P(=O)(Cl)N1CCOC1=O
inactive: NCI-H23 lung 87.7% | NCI-H226 lung 104% | NCI-H322M lung 126% | HOP-62 NSCLC 107% | NCI-H460 lung 119% | HOP-92 NSCLC 79.4% | NCI-H522 lung 101% | A549/ATCC NSCLC 92.3% | 786-0 renal 97% | COLO 205 colon 107% | DU-145 prostate 115% | K-562 leukemia 99.3% | MALME-3M melanoma 121% | MDA-MB-231 breast 102% | RXF 393 renal 94.6% | SF-268 CNS 107% | SF-295 CNS 107% | SF-539 CNS 107% | UACC-257 melanoma 103% | M14 melanoma 99.9%

ClCCN(Cc1ccc(Cl)cc1)Cc1ccc(Cl)cc1
inactive: NCI-H23 lung 93.4% | NCI-H226 lung 112% | NCI-H322M lung 108% | HOP-62 NSCLC 110% | NCI-H460 lung 84.6% | HOP-92 NSCLC 35.7% | NCI-H522 lung 43.3% | A549/ATCC NSCLC 91.3% | 786-0 renal 96.1% | COLO 205 colon 99.6% | DU-145 prostate 101% | K-562 leukemia 87% | MALME-3M melanoma 122% | MDA-MB-231 breast 98.1% | RXF 393 renal 79.1% | SF-268 CNS 79.5% | SF-295 CNS 58.7% | SF-539 CNS 95.8% | UACC-257 melanoma 94.9% | M14 melanoma 113%

CC(C)N(CCCl)/N=N/c1nc2nc[nH]c(=O)c2[nH]1
inactive: NCI-H23 lung 98.6% | NCI-H226 lung 113% | NCI-H322M lung 91.9% | HOP-62 NSCLC 97.3% | NCI-H460 lung 111% | HOP-92 NSCLC 110% | NCI-H522 lung 85.4% | A549/ATCC NSCLC 89.3% | 786-0 renal 98.7% | COLO 205 colon 124% | DU-145 prostate 110% | K-562 leukemia 96.8% | MALME-3M melanoma 92.3% | MDA-MB-231 breast 105% | RXF 393 renal 143% | SF-268 CNS 105% | SF-295 CNS 98.4% | SF-539 CNS 102% | UACC-257 melanoma 101% | M14 melanoma 109%

CC1(C)NC(C)(C)C(Br)C(=O)C1Br (stereo not given)
inactive: NCI-H23 lung 99.7% | NCI-H226 lung 108% | NCI-H322M lung 143% | HOP-62 NSCLC 105% | NCI-H460 lung 115% | HOP-92 NSCLC 107% | NCI-H522 lung 95.8% | A549/ATCC NSCLC 93.4% | 786-0 renal 102% | COLO 205 colon 110% | DU-145 prostate 117% | K-562 leukemia 95.2% | MALME-3M melanoma 139% | MDA-MB-231 breast 116% | RXF 393 renal 134% | SF-268 CNS 111% | SF-295 CNS 109% | SF-539 CNS 101% | UACC-257 melanoma 96.2% | M14 melanoma 105%

S=P(Cl)(N1CCCCCC1)N1CC1 (stereo not given)
inactive: NCI-H23 lung 102% | NCI-H226 lung 98.7% | NCI-H322M lung 105% | HOP-62 NSCLC 103% | NCI-H460 lung 108% | HOP-92 NSCLC 91.3% | NCI-H522 lung 97.5% | A549/ATCC NSCLC 97.4% | 786-0 renal 101% | COLO 205 colon 112% | DU-145 prostate 110% | K-562 leukemia 104% | MALME-3M melanoma 98.6% | MDA-MB-231 breast 100% | RXF 393 renal 126% | SF-268 CNS 104% | SF-295 CNS 104% | SF-539 CNS 97.3% | UACC-257 melanoma 99.6% | M14 melanoma 103%

CCN(CCCl)Cc1ccccc1
inactive: NCI-H23 lung 107% | NCI-H226 lung 98.7% | NCI-H322M lung 98.8% | HOP-62 NSCLC 104% | NCI-H460 lung 106% | HOP-92 NSCLC 81.4% | NCI-H522 lung 90.1% | A549/ATCC NSCLC 94.8% | 786-0 renal 100% | COLO 205 colon 102% | DU-145 prostate 112% | K-562 leukemia 102% | MALME-3M melanoma 118% | MDA-MB-231 breast 102% | RXF 393 renal 115% | SF-268 CNS 95.5% | SF-295 CNS 103% | SF-539 CNS 98.3% | UACC-257 melanoma 107% | M14 melanoma 109%

CCOP(=O)(Nc1ccccc1Cl)OCC
inactive: NCI-H23 lung 90.8% | NCI-H226 lung 94.4% | NCI-H322M lung 88.3% | HOP-62 NSCLC 90.1% | NCI-H460 lung 102% | HOP-92 NSCLC 76.1% | NCI-H522 lung 92.1% | A549/ATCC NSCLC 89.9% | 786-0 renal 104% | COLO 205 colon 101% | DU-145 prostate 98.6% | K-562 leukemia 107% | MALME-3M melanoma 97.2% | MDA-MB-231 breast 117% | RXF 393 renal 110% | SF-268 CNS 91.2% | SF-295 CNS 102% | SF-539 CNS 103% | UACC-257 melanoma 100% | M14 melanoma 96.1%

COc1ccc(C2N=C(NN=C(CCl)CCl)SP2(=O)Nc2ncccn2)c(OC)c1 (stereo not given)
inactive: NCI-H23 lung 95.9% [100 µM] | NCI-H226 lung 83.1% [100 µM] | NCI-H322M lung 90.4% [100 µM] | HOP-62 NSCLC 94% [100 µM] | NCI-H460 lung 103% [100 µM] | HOP-92 NSCLC 99.8% [100 µM] | NCI-H522 lung 111% [100 µM] | A549/ATCC NSCLC 104% [100 µM] | 786-0 renal 106% [100 µM] | COLO 205 colon 122% [100 µM] | DU-145 prostate 104% [100 µM] | K-562 leukemia 105% [100 µM] | MALME-3M melanoma 102% [100 µM] | MDA-MB-231 breast 84% [100 µM] | RXF 393 renal 104% [100 µM] | SF-268 CNS 101% [100 µM] | SF-295 CNS 103% [100 µM] | SF-539 CNS 91.4% [100 µM] | UACC-257 melanoma 104% [100 µM] | M14 melanoma 92.9% [100 µM]

CC(Cl)CN(CC(C)Cl)C(=O)c1ccccc1 (stereo not given)
inactive: NCI-H23 lung 102% | NCI-H226 lung 93.2% | NCI-H322M lung 107% | HOP-62 NSCLC 106% | NCI-H460 lung 110% | HOP-92 NSCLC 81.1% | NCI-H522 lung 94.5% | A549/ATCC NSCLC 101% | 786-0 renal 107% | COLO 205 colon 103% | DU-145 prostate 103% | K-562 leukemia 100% | MALME-3M melanoma 102% | MDA-MB-231 breast 88% | RXF 393 renal 115% | SF-268 CNS 95.6% | SF-295 CNS 106% | SF-539 CNS 103% | UACC-257 melanoma 110% | M14 melanoma 103%

O=C(O)c1ccccc1[As](=O)(O)O
inactive: NCI-H23 lung 111% | NCI-H226 lung 101% | NCI-H322M lung 95.8% | HOP-62 NSCLC 101% | NCI-H460 lung 163% | HOP-92 NSCLC 96.6% | NCI-H522 lung 91.2% | A549/ATCC NSCLC 93.8% | 786-0 renal 105% | COLO 205 colon 120% | DU-145 prostate 99.5% | K-562 leukemia 67.7% | MALME-3M melanoma 113% | MDA-MB-231 breast 111% | RXF 393 renal 79.2% | SF-268 CNS 95.1% | SF-295 CNS 98% | SF-539 CNS 149% | UACC-257 melanoma 91.9% | M14 melanoma 103%

C=NNc1ccc([N+](=O)[O-])cc1[N+](=O)[O-]
inactive: NCI-H23 lung 100% | NCI-H226 lung 88.1% | NCI-H322M lung 77.9% | HOP-62 NSCLC 102% | NCI-H460 lung 96.9% | HOP-92 NSCLC 83.8% | NCI-H522 lung 68.9% | A549/ATCC NSCLC 92.1% | 786-0 renal 103% | COLO 205 colon 99.4% | DU-145 prostate 88.6% | K-562 leukemia 64.7% | MALME-3M melanoma 94.4% | MDA-MB-231 breast 81.3% | RXF 393 renal 93.8% | SF-268 CNS 82.4% | SF-295 CNS 90.6% | SF-539 CNS 98.9% | UACC-257 melanoma 90.1% | M14 melanoma 92.5%

CCCC1OP(N)(=O)OCC1CC (stereo not given)
inactive: NCI-H23 lung 109% and 94.6% | NCI-H226 lung 99.9% and 92.7% | NCI-H322M lung 105% and 102% | HOP-62 NSCLC 110% and 109% | NCI-H460 lung 115% and 95.2% | HOP-92 NSCLC 95% and 84.1% | NCI-H522 lung 86.2% | A549/ATCC NSCLC 105% and 104% | 786-0 renal 113% and 97.6% | COLO 205 colon 105% and 108% | DU-145 prostate 115% and 98.1% | K-562 leukemia 107% and 143% | MALME-3M melanoma 134% and 95% | MDA-MB-231 breast 102% and 108% | RXF 393 renal 118% and 104% | SF-268 CNS 104% and 95.3% | SF-295 CNS 114% and 105% | SF-539 CNS 115% and 98.5% | UACC-257 melanoma 108% and 110% | M14 melanoma 105% and 88.7%
